Earlier results in patent publication US11913033B2, “Luciferases and methods for using same” (LIGHT BIO, INC., priority 2017, dated 2024).

The chains behind the UniProt entries cited, without tags or fusion partners.
UniProt P08659, whole entry: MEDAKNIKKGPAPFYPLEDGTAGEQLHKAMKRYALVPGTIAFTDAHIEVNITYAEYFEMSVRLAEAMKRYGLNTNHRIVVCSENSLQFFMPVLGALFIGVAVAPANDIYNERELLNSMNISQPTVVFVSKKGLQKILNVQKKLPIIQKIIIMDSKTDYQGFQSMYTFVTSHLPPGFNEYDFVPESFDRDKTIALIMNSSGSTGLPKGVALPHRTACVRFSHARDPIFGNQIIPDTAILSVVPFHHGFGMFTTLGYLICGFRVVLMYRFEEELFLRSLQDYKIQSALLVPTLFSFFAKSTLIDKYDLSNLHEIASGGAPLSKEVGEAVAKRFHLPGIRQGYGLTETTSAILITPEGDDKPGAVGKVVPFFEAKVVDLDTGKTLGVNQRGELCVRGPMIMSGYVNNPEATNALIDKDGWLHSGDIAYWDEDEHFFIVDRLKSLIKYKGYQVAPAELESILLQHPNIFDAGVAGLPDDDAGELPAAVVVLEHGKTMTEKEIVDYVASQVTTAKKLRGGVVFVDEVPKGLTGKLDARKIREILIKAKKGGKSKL

Target: Luciferase from Photinus pyralis (Photinus pyralis, UniProt P08659)
Settings: cited from earlier work

SMILES	quantum efficiency of the reaction (Seliger and McElroy 1960)	inhibition of the D-luciferin reaction (Lembert 1996)
O=C(O)[C@H]1CSC(c2nc3ccc(O)cc3s2)=N1 [D-luciferin]	0.88+−0.25	
O=C(O)[C@@H]1CSC(c2nc3ccc(O)cc3s2)=N1 [L-luciferin]		strong competitive inhibitor
